Inhibition data for 24 compounds are collected here from PubChem BioAssay AID2718 (Broad Institute, 2010).

Chains of the proteins cited; added tags and fusions are not shown.
UniProt O15379, whole entry: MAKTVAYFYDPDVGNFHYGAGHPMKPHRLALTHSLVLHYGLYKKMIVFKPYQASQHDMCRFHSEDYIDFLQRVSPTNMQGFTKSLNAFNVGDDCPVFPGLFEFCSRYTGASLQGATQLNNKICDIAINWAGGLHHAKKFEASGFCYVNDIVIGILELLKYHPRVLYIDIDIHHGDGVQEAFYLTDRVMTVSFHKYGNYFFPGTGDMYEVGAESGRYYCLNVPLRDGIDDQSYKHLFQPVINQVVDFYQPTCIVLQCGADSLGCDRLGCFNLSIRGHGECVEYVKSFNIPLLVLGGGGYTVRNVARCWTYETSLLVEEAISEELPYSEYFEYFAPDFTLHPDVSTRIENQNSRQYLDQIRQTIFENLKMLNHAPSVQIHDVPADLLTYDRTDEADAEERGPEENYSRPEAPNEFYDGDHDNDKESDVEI

A word on the inhibition: it is the drop in the measured response relative to a control, in per cent.

Each structure is given as a SMILES string. The list shows a part of the results, in another mix than the full data. Some of these compounds have results that are not shown, active ones among them. Calls of active or inactive are those of the source. Rule as the data show it: active = inhibition above about 26% (passing the limit was not always enough); inconclusive = no clear call, values can overlap the other calls.

The assay has as its target Histone deacetylase 3 (Homo sapiens) (UniProt O15379). In words: HDAC3 deacetylase inhibitors, primary screen, biochemical, fluorescence, cell-free homogeneous (AID 2718). The note with it: recombinant HDAC3, fluorogenic peptide/trypsin coupled, at 8.3 µM, active compounds read high.
On to `Cc1ccccc1C(=O)NCC1(N2CCCCC2)CCCCC1`, for which the inhibition was inactive: 1.3%. `CN(C)C1CCCC1OC(=O)C(O)(c1ccccc1)c1ccccc1` (centres undefined): the inhibition is inactive: 5.08%. In the case of `CN(C)c1ccc(C(=O)NCC2(N(C)C)CCCCC2)cc1`, the inhibition is inactive: 6.28%. The value for `COc1ccc(C(=O)NCC2(N(C)C)CCCCC2)cc1` was inactive: 1.39%; that for `Cc1cc(C(=O)NCC2(N3CCCCC3)CCCCC2)ccc1[N+](=O)[O-]` was inactive: 2.31%. `CCN1CCCC(OC(=O)C2(O)c3ccccc3C=Cc3ccccc32)C1` (centres undefined): the inhibition is inactive: -12.8%.

Turning to `O=C(NCC1(N2CCCCC2)CCCCC1)c1cccc(Br)c1`, the inhibition was inactive: -3.78%. As to `C=CCN1CCN(CCOC(=O)C(O)(c2ccccc2)c2ccccc2)CC1`, the inhibition is inactive: 1.43%.

Take `O=C(NCC1(N2CCCCC2)CCCCC1)c1cc(F)c(F)cc1Cl`: the inhibition is inactive: 0.922%.

Regarding `CN1[C@@H]2CC[C@H]1CC(OC(=O)C(O)(c1ccccc1)c1ccccc1)C2` (some centres undefined), the inhibition is inactive: 1.62%. Regarding `O=C(NCC1(N2CCCCC2)CCCCC1)c1cc([N+](=O)[O-])ccc1Cl`, the inhibition was inactive: -0.798%. For `Cc1ccc(C(=O)NCC2(N3CCCCC3)CCCCC2)cc1` the value was inactive: 3.52%; for `CCN(CC)CC(C)C(C)OC(=O)C(O)(c1ccccc1)c1ccccc1` (centres undefined), inactive: -4.55%. For the compound `COc1cc(SC)ccc1C(=O)NCC1(N(C)C)CCCCC1`, the inhibition is inactive: 2.85%. For `CC(C)N1C(=O)CC2(CCN(CCOC(=O)C(O)(c3ccccc3)c3ccccc3)CC2)C1=O` the value was inactive: -1.45%; for `O=C(OC1CN2CCC1CC2)C(CO)(c1ccccc1)c1ccccc1` (centres undefined), inactive: -15.3%. The value for `CC(C)Oc1ccc(C(=O)NCC2(N(C)C)CCCCC2)cc1` was inactive: 0.197%; that for `CN(C)c1cccc(C(=O)NCC2(N(C)C)CCCCC2)c1` was inactive: 6.6%; that for `COc1ccc(Br)c(C(=O)NCC2(N3CCCCC3)CCCCC2)c1` was inactive: 0.726%.

Turning to `COc1cc(C(=O)NCC2(N(C)C)CCCCC2)c([N+](=O)[O-])cc1OC`, the inhibition is inactive: 0.438%. The value for `CN(C)C1(CNC(=O)c2ccc(Br)cc2)CCCCC1` was inactive: 3.01%; that for `O=C(NCC1(N2CCCCC2)CCCCC1)c1cccc(Cl)c1` was inactive: 3.3%. The value for `COc1cccc(C(=O)NCC2(N3CCCCC3)CCCCC2)c1` was inactive: 2.06%. Turning to `COc1ccc(Cl)cc1C(=O)NCC1(N(C)C)CCCCC1`, the inhibition is inactive: 6.09%.
